Measured values published in patent US10227281B2, “Preparation of 2,6- and 2,7-disubstituted anthraquinone derivates” (BASF SE, priority 2014, dated 2019).

Experiment: Determination of the solubility of anthraquinone derivatives in xylene/diisobutylcarbinol
Conditions: mixture of xylene (50 volume-%) and diisobutylcarbinol (50 volume-%), 22° C., quinone form

“2,6-(1,5-dimethy)-nonylanthracene-9,10-dione and 2,7-(1,5-dimethy)-nonylanthracene-9,10-dione [Example 6]” showed a Solubility of 390 mM.
